Publication PMC6452631 (Journal of medicinal chemistry, 2017)

What was measured:
hTG2 = target: T1, hTG2 (Homo sapiens, UniProt P21980); settings: pH 6.5
T1 sequence (P21980 1-687): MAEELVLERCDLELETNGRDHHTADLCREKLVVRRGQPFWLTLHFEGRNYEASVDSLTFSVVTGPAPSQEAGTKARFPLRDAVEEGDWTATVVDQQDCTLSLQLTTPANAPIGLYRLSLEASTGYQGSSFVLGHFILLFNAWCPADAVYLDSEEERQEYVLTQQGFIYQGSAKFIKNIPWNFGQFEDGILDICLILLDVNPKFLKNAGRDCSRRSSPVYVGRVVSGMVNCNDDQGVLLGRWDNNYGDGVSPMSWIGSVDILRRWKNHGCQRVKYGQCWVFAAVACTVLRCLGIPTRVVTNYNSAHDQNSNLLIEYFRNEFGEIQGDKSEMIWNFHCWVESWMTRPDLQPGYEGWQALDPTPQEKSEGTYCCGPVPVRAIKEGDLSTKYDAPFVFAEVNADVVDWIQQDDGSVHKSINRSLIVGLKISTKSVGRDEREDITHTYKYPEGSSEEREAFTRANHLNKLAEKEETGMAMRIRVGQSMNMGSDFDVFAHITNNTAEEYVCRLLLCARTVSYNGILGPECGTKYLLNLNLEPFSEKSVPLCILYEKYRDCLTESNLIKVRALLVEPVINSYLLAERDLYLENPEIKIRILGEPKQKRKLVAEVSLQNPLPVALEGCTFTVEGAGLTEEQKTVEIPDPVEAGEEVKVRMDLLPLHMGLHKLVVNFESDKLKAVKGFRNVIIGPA

gplTG2 = settings: cited from earlier work

- kinact (hTG2): 0.0133 s⁻¹
SMILES: C=CC(=O)NCCCC[C@H](NC(=O)OCc1ccccc1)C(=O)O [Compound 1, (S)-6-Acrylamido-2-(((benzyloxy)carbonyl)amino)hexanoic Acid]
- efficiency constants (kinact/KI) (gplTG2): 10^6 M^−1 min^−1
